Reference: US7132271B2, “Methods for enhancing the production of viral vaccines in cell culture” (priority 1995, dated 2006)

Columns and labels:
human PKR = assay: Western blot analysis of PKR protein in U937 transfectants; assay type: cell-based
Description: To further confirm the inhibition of PKR expression in the pPKR-AS-transfected cell lines, Western blot analysis was performed using a monoclonal antibody specific for human PKR. Cell extracts (100 μg) were separated on a 10% SDS-polyacrylamide gel and electrotransferred onto nitrocellulose membrane. The membranes were incubated with anti-PKR monoclonal antibody (Meurs et al. Cell 1990) at 1:1000 in BLOTTO (5% nonfat dry milk, 0.05% Tween-20 in Tris-buffered saline). Final detection of PKR was facilitated by probing with a secondary horseradish peroxidase-conjugated goat anti-mouse antibody (Santa Cruz Biotech) and using a chemiluminesence method (Amersham ECL).

PKR = PKR autophosphorylation assay with poly(I):poly(C)-cellulose on cell extracts; assay type: biochemical, human
Description: Residual PKR activity in PKR-deficient cells can be determined by any of a number of techniques that are well-known in the art. The activity of PKR can be determined directly by, for example, an autophosphorylation assay such as that described in Maran et al. (Science 265:789–792 1994) or Silverman et al. (Silverman, R. H., and Krause, D. (1986) in Interferons: A practical approach. Morris, A. G. and Clemens, M. J., eds. pp. 71–74 IRL Press, Oxford-Washington, D.C.). Typically, an autophosphorylation assay for PKR activity is carried out as follows. Extracts from cells to be examined for PKR activity which contain approximately 100 μg of protein are incubated with 20 μl of poly(I):poly(C)-cellulose beads for 60 min on ice. The kinase is immobilized and activated on the beads. After washings of the polynucleotide cellulose-bound kinase fractions, an autophosphorylation reaction is performed at 30° C. for 30 min in an assay solution. […] The samples are heated at 90° C. for 3 min in gel sample buffer containing sodium dodecyl sulfate (SDS) and the proteins are analyzed by 10% SD S-polyacrylamide gel electrophoresis. […]
PKR kinase activity was measured in an autophosphorylation assay that uses poly(I):poly(C)-cellulose for binding and activation of PKR enzyme. […] Proteins were separated on a 10% SDS-polyacrylamide gel and analyzed by autoradiography.

Substance: IFN-α: recombinant human IFN-α2, Schering
- PKR protein level following treatment with IFN (human PKR; U937-AS1 and U937-AS3 cells): did not increase
- PKR protein level following treatment with IFN (human PKR; U937-neo cells): increased
- PKR activity following treatment with IFN (PKR; U937-neo cells, recombinant human IFN-α2 200 U/mL): increased
- Restoration of PKR activity by IFN treatment (PKR; four cell lines transfected with pPKR-AS or p[Arg^296]PKR): did not restore PKR activity
